Measurements taken from patent US11247989B2 (priority 2017, dated 2022).

Sequences of proteins named here, by UniProt entry; tags and fusion partners are left off.
UniProt Q92793, whole entry: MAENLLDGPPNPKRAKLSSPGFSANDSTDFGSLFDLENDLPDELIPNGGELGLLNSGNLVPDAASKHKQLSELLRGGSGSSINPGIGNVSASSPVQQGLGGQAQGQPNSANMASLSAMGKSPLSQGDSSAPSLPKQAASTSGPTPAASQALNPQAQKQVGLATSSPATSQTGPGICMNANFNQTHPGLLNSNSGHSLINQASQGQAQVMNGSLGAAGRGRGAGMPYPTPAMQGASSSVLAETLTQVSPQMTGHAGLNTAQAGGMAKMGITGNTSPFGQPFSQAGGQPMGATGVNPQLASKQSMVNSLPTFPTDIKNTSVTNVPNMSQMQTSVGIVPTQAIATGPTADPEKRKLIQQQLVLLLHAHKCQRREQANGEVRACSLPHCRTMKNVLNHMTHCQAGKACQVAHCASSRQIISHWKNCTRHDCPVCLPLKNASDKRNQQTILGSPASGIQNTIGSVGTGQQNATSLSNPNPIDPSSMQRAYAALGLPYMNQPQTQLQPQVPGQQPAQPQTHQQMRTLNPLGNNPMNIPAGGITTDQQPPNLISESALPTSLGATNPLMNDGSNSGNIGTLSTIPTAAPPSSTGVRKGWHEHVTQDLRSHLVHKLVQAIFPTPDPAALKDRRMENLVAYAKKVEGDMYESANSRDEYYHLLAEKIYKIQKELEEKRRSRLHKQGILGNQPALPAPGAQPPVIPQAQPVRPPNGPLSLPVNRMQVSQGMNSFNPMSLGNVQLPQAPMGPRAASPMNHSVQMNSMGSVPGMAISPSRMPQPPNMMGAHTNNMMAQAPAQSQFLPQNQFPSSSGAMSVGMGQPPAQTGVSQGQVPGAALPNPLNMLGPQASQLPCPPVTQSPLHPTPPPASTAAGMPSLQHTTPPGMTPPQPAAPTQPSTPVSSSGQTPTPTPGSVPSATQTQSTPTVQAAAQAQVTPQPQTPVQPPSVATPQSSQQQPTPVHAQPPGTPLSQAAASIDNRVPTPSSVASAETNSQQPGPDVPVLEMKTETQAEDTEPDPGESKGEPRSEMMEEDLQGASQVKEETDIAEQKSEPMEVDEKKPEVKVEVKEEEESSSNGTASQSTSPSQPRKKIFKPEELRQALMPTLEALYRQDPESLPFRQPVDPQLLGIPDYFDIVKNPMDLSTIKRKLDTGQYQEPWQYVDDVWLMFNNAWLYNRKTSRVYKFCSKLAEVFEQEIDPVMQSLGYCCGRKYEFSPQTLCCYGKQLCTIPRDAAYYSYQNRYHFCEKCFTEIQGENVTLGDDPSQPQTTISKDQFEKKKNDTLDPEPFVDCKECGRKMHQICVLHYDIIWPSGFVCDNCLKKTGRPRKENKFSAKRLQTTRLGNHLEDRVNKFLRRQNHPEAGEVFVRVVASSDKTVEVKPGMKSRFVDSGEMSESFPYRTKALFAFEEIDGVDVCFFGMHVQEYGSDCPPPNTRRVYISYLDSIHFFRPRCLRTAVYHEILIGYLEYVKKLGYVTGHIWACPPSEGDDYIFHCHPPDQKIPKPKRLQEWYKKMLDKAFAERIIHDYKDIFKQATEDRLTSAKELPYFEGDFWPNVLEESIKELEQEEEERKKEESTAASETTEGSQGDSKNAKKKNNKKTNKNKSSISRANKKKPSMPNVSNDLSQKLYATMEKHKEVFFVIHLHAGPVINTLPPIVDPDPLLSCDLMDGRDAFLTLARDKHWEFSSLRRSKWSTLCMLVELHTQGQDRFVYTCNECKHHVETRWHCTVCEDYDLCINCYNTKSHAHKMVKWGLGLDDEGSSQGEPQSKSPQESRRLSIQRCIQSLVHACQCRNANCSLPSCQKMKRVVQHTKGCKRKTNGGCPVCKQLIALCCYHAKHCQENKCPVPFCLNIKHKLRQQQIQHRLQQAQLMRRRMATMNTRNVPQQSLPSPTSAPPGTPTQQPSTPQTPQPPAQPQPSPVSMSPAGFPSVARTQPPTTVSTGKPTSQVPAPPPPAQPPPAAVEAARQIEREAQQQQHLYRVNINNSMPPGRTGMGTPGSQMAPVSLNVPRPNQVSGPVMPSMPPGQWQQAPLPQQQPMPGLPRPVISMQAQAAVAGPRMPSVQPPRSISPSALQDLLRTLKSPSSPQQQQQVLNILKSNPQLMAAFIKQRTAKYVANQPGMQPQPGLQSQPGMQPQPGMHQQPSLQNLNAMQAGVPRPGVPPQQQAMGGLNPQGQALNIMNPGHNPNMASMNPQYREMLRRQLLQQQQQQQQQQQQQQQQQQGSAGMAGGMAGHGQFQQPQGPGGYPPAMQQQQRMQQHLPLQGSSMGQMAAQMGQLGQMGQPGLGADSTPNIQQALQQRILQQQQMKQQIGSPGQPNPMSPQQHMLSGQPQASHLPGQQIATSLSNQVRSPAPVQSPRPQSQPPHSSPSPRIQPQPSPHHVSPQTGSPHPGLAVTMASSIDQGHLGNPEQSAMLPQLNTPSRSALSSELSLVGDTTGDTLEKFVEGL

Target: CBP (Homo sapiens (Human), UniProt Q92793)
Assay: biochemical

Q: For COc1ccc(-c2nc3cccc(-c4nn(C5CCOCC5)c5c4CN(C(C)=O)CC5)c3o2)cc1 [Example 159], which IC50 is on record?
A: 4.11 nM
